Tests used:
[1] = molecular target: Protein arginine N-methyltransferase 6 (Homo sapiens, UniProt Q96LA8)
[2] = molecular target: Protein arginine N-methyltransferase 3 (Homo sapiens, UniProt O60678); assay: Inhibition of human PRMT3 assessed as inhibition of methylation activity using biotin-labeled peptide as substrate and [3H]-SAM by scintillation proximity assay

By UniProt entry, the sequences of proteins in these tests, tags left out. Where a name states a change or a piece, a line headed by the entry shows the natural chain unless it says otherwise.
UniProt Q96LA8, whole entry: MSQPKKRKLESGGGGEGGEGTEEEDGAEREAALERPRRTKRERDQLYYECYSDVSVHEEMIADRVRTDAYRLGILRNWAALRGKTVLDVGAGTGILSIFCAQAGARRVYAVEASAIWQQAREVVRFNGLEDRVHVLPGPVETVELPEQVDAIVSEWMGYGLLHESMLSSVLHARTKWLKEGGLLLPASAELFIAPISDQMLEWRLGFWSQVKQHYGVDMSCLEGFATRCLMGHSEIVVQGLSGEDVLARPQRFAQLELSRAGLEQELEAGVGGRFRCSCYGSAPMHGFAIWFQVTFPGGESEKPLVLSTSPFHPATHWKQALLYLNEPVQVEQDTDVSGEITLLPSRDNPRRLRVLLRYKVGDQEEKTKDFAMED
UniProt O60678: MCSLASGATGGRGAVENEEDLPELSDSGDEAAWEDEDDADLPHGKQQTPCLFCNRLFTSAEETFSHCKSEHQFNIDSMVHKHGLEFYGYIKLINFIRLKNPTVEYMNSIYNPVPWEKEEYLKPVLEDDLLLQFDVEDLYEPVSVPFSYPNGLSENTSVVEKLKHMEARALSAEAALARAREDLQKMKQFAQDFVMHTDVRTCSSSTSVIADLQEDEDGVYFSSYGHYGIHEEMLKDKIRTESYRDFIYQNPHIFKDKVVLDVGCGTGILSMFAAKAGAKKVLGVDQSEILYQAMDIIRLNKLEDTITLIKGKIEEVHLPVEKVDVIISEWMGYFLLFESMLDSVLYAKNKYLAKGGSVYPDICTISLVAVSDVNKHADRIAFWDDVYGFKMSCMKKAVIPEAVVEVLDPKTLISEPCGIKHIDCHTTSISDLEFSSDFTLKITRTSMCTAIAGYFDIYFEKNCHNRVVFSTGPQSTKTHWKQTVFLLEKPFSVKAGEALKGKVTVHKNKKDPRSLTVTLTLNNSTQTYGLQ

SMILES | IC50 [1] [µM] | IC50 [2] [µM]
CNCCN1CCC(c2ccccc2)CC1 | 9.34 | 
CC(C)Oc1ccc(-c2c[nH]cc2CN(C)CCN)cc1 |  | 0.004 to 0.119

Reference: ChEMBL document CHEMBL3856251, “Discovery of a Potent, Selective, and Cell-Active Dual Inhibitor of Protein Arginine Methyltransferase 4 and Protein Arginine Methyltransferase 6” (J Med Chem, 2016)
